Assay results taken from patent US20200024278A1, “COMPOSITION COMPRISING ANTIBIOTIC COMPOUND AND AN HETEROCYCLIC COMPOUND AND THEIR USE IN PREVENTING OR TREATING BACTERIAL INFECTIONS” (MUTABILIS, priority 2016, published 2020).

What was measured:
Assay in all cases: MIC, broth microdilution (CLSI), substance alone or ATB combined with compound at 4 or 8 μg/mL
ECO 190317 = format: cell-based, E. coli
PAE UFR48 = format: cell-based, P. aeruginosa
SPN 49619 = format: cell-based, S. pneumoniae
PAE UFR90 = format: cell-based, P. aeruginosa
KPN BAA-1898 = format: cell-based, K. pneumoniae
PAE 105250 = format: cell-based, P. aeruginosa
ECO UFR39 = format: cell-based, E. coli
KPN UFR42 = format: cell-based, K. pneumoniae
SAU 29213 = format: cell-based, S. aureus
KPN 6299 = format: cell-based, K. pneumoniae
ECL P99 = format: cell-based, E. cloacae

MIC ATB combined with Example 9 @4 μg/ml (ECO 190317; with Example 9 @4 μg/ml): <0.031 µg/mL
MIC ATB combined with Example 9 @4 μg/ml (ECO 190317; with Example 9 at 4 μg/ml): <0.031 µg/mL
MIC ATB combined with Example 11 @8 μg/ml (ECO 190317; with Example 11 at 8 μg/ml): <0.031 µg/mL
MIC ATB combined with Example 12 @8 μg/ml (ECO 190317; with Example 12 at 8 μg/ml): <0.031 µg/mL
MIC ATB combined with Example 14 @8 μg/ml (ECO 190317; with Example 14 at 8 μg/ml): <0.031 µg/mL
MIC ATB combined with Example 15 @4 μgml (ECO 190317; with Example 15 at 4 μg/ml): <0.031 µg/mL
MIC ATB combined with Example 16 @4 μg/ml (ECO 190317; with Example 16 at 4 μg/ml): <0.031 µg/mL
MIC ATB combined with Example 7 @8 μgml (PAE UFR48; with Example 7 at 8 μg/ml): >32 µg/mL
MIC ATB combined with Example 9 @4 μg/ml (PAE UFR48; with Example 9 @4 μg/ml): >32 µg/mL
MIC ATB combined with Example 9 @4 μg/ml (PAE UFR48; with Example 9 at 4 μg/ml): >32 µg/mL
MIC ATB combined with Example 11 @8 μg/ml (PAE UFR48; with Example 11 at 8 μg/ml): >32 µg/mL
MIC ATB combined with Example 13 @8 μg/ml (PAE UFR48; with Example 13 at 8 μg/ml): >32 µg/mL
MIC ATB combined with Example 15 @4 μgml (PAE UFR48; with Example 15 at 4 μg/ml): >32 µg/mL
MIC ATB combined with Example 9 @4 μg/ml (SPN 49619; with Example 9 @4 μg/ml): <0.031 µg/mL
MIC ATB combined with Example 9 @4 μg/ml (SPN 49619; with Example 9 at 4 μg/ml): <0.031 µg/mL
MIC ATB combined with Example 12 @8 μg/ml (SPN 49619; with Example 12 at 8 μg/ml): <0.031 µg/mL
MIC ATB combined with Example 14 @8 μg/ml (SPN 49619; with Example 14 at 8 μg/ml): <0.031 µg/mL
MIC ATB combined with Example 7 @8 μgml (PAE UFR90; with Example 7 at 8 μg/ml): >32 µg/mL
MIC ATB combined with Example 9 @4 μg/ml (PAE UFR90; with Example 9 @4 μg/ml): >32 µg/mL
MIC ATB combined with Example 9 @4 μg/ml (PAE UFR90; with Example 9 at 4 μg/ml): >32 µg/mL
MIC ATB combined with Example 11 @8 μg/ml (PAE UFR90; with Example 11 at 8 μg/ml): >32 µg/mL
MIC ATB combined with Example 13 @8 μg/ml (PAE UFR90; with Example 13 at 8 μg/ml): >32 µg/mL
MIC ATB combined with Example 15 @4 μgml (PAE UFR90; with Example 15 at 4 μg/ml): >32 µg/mL
MIC ATB alone (KPN BAA-1898; antibiotic alone): >32 µg/mL
MIC ATB combined with Example 1 @8 μg/ml (KPN BAA-1898; with Example 1 @8 μg/ml): >32 µg/mL
MIC ATB combined with Example 1 @8 μg/ml (KPN BAA-1898; with Example 1 at 8 μg/ml): >32 µg/mL
MIC ATB combined with Example 7 @8 μgml (KPN BAA-1898; with Example 7 at 8 μg/ml): >32 µg/mL
MIC ATB combined with Example 9 @4 μg/ml (KPN BAA-1898; with Example 9 @4 μg/ml): <0.031 µg/mL
MIC ATB combined with Example 9 @4 μg/ml (KPN BAA-1898; with Example 9 at 4 μg/ml): <0.031 µg/mL
MIC ATB combined with Example 11 @8 μg/ml (KPN BAA-1898; with Example 11 at 8 μg/ml): <0.031 µg/mL
MIC ATB combined with Example 12 @8 μg/ml (KPN BAA-1898; with Example 12 at 8 μg/ml): <0.031 µg/mL
MIC ATB combined with Example 13 @8 μg/ml (KPN BAA-1898; with Example 13 at 8 μg/ml): >32 µg/mL
MIC ATB combined with Example 14 @8 μg/ml (KPN BAA-1898; with Example 14 at 8 μg/ml): <0.031 µg/mL
MIC ATB combined with Example 15 @4 μgml (KPN BAA-1898; with Example 15 at 4 μg/ml): <0.031 µg/mL
MIC ATB combined with Example 16 @4 μg/ml (KPN BAA-1898; with Example 16 at 4 μg/ml): <0.031 µg/mL
MIC ATB alone (PAE 105250; antibiotic alone): >32 µg/mL
MIC ATB combined with Example 1 @8 μg/ml (PAE 105250; with Example 1 @8 μg/ml): >32 µg/mL
MIC ATB combined with Example 1 @8 μg/ml (PAE 105250; with Example 1 at 8 μg/ml): >32 µg/mL
MIC ATB combined with Example 7 @8 μgml (PAE 105250; with Example 7 at 8 μg/ml): >32 µg/mL
MIC ATB combined with Example 9 @4 μg/ml (PAE 105250; with Example 9 @4 μg/ml): >32 µg/mL
MIC ATB combined with Example 9 @4 μg/ml (PAE 105250; with Example 9 at 4 μg/ml): >32 µg/mL
MIC ATB combined with Example 11 @8 μg/ml (PAE 105250; with Example 11 at 8 μg/ml): >32 µg/mL
MIC ATB combined with Example 13 @8 μg/ml (PAE 105250; with Example 13 at 8 μg/ml): >32 µg/mL
MIC ATB combined with Example 15 @4 μgml (PAE 105250; with Example 15 at 4 μg/ml): >32 µg/mL
MIC ATB combined with Example 9 @4 μg/ml (ECO UFR39; with Example 9 @4 μg/ml): <0.031 µg/mL
MIC ATB combined with Example 9 @4 μg/ml (ECO UFR39; with Example 9 at 4 μg/ml): <0.031 µg/mL
MIC ATB combined with Example 11 @8 μg/ml (ECO UFR39; with Example 11 at 8 μg/ml): <0.031 µg/mL
MIC ATB combined with Example 12 @8 μg/ml (ECO UFR39; with Example 12 at 8 μg/ml): <0.031 µg/mL
MIC ATB combined with Example 14 @8 μg/ml (ECO UFR39; with Example 14 at 8 μg/ml): <0.031 µg/mL
MIC ATB combined with Example 15 @4 μgml (ECO UFR39; with Example 15 at 4 μg/ml): <0.031 µg/mL
MIC ATB combined with Example 16 @4 μg/ml (ECO UFR39; with Example 16 at 4 μg/ml): <0.031 µg/mL
MIC ATB alone (KPN UFR42; antibiotic alone): >32 µg/mL
MIC ATB combined with Example 1 @8 μg/ml (KPN UFR42; with Example 1 @8 μg/ml): >32 µg/mL
MIC ATB combined with Example 1 @8 μg/ml (KPN UFR42; with Example 1 at 8 μg/ml): >32 µg/mL
MIC ATB combined with Example 7 @8 μgml (KPN UFR42; with Example 7 at 8 μg/ml): >32 µg/mL
MIC ATB combined with Example 9 @4 μg/ml (KPN UFR42; with Example 9 @4 μg/ml): >32 µg/mL
MIC ATB combined with Example 9 @4 μg/ml (KPN UFR42; with Example 9 at 4 μg/ml): >32 µg/mL
MIC ATB combined with Example 11 @8 μg/ml (KPN UFR42; with Example 11 at 8 μg/ml): >32 µg/mL
MIC ATB combined with Example 12 @8 μg/ml (KPN UFR42; with Example 12 at 8 μg/ml): <0.031 µg/mL
MIC ATB combined with Example 13 @8 μg/ml (KPN UFR42; with Example 13 at 8 μg/ml): >32 µg/mL
MIC ATB combined with Example 14 @8 μg/ml (KPN UFR42; with Example 14 at 8 μg/ml): <0.031 µg/mL
MIC ATB combined with Example 15 @4 μgml (KPN UFR42; with Example 15 at 4 μg/ml): >32 µg/mL
MIC ATB combined with Example 16 @4 μg/ml (KPN UFR42; with Example 16 at 4 μg/ml): <0.031 µg/mL
MIC ATB combined with Example 9 @4 μg/ml (SAU 29213; with Example 9 @4 μg/ml): <0.031 µg/mL
MIC ATB combined with Example 9 @4 μg/ml (SAU 29213; with Example 9 at 4 μg/ml): <0.031 µg/mL
MIC ATB combined with Example 12 @8 μg/ml (SAU 29213; with Example 12 at 8 μg/ml): <0.031 µg/mL
MIC ATB combined with Example 14 @8 μg/ml (SAU 29213; with Example 14 at 8 μg/ml): <0.031 µg/mL
MIC ATB combined with Example 16 @4 μg/ml (SAU 29213; with Example 16 at 4 μg/ml): <0.031 µg/mL
MIC ATB alone (KPN 6299; antibiotic alone): >32 µg/mL
MIC ATB combined with Example 1 @8 μg/ml (KPN 6299; with Example 1 @8 μg/ml): >32 µg/mL
MIC ATB combined with Example 1 @8 μg/ml (KPN 6299; with Example 1 at 8 μg/ml): >32 µg/mL
MIC ATB combined with Example 7 @8 μgml (KPN 6299; with Example 7 at 8 μg/ml): >32 µg/mL
MIC ATB combined with Example 9 @4 μg/ml (KPN 6299; with Example 9 @4 μg/ml): >32 µg/mL
MIC ATB combined with Example 9 @4 μg/ml (KPN 6299; with Example 9 at 4 μg/ml): >32 µg/mL
MIC ATB combined with Example 11 @8 μg/ml (KPN 6299; with Example 11 at 8 μg/ml): <0.031 µg/mL
MIC ATB combined with Example 12 @8 μg/ml (KPN 6299; with Example 12 at 8 μg/ml): <0.031 µg/mL
MIC ATB combined with Example 13 @8 μg/ml (KPN 6299; with Example 13 at 8 μg/ml): >32 µg/mL
MIC ATB combined with Example 14 @8 μg/ml (KPN 6299; with Example 14 at 8 μg/ml): <0.031 µg/mL
MIC ATB combined with Example 15 @4 μgml (KPN 6299; with Example 15 at 4 μg/ml): <0.031 µg/mL
MIC ATB combined with Example 16 @4 μg/ml (KPN 6299; with Example 16 at 4 μg/ml): <0.031 µg/mL
MIC ATB combined with Example 7 @8 μgml (ECL P99; with Example 7 at 8 μg/ml): >32 µg/mL
MIC ATB combined with Example 9 @4 μg/ml (ECL P99; with Example 9 @4 μg/ml): <0.031 µg/mL
MIC ATB combined with Example 9 @4 μg/ml (ECL P99; with Example 9 at 4 μg/ml): <0.031 µg/mL
MIC ATB combined with Example 11 @8 μg/ml (ECL P99; with Example 11 at 8 μg/ml): <0.031 µg/mL
MIC ATB combined with Example 12 @8 μg/ml (ECL P99; with Example 12 at 8 μg/ml): <0.031 µg/mL
MIC ATB combined with Example 13 @8 μg/ml (ECL P99; with Example 13 at 8 μg/ml): >32 µg/mL
MIC ATB combined with Example 14 @8 μg/ml (ECL P99; with Example 14 at 8 μg/ml): <0.031 µg/mL
MIC ATB combined with Example 15 @4 μgml (ECL P99; with Example 15 at 4 μg/ml): <0.031 µg/mL
MIC ATB combined with Example 16 @4 μg/ml (ECL P99; with Example 16 at 4 μg/ml): <0.031 µg/mL
Compound: O=C(N[C@H](CO)[C@H](O)c1ccc([N+](=O)[O-])cc1)C(Cl)Cl [CM]
